Consider one compound from patent US8945540B2, “Compositions for enhancing the antibacterial activity of myeloperoxidase and methods of use thereof” (Exoxemis, Inc., priority 2008, dated 2015).

The structures appear in SMILES notation.

Assay [1] deals with Staphylococcus aureus. In words: Microbicidal activity of the myeloperoxidase system (p-MPO, glucose oxidase, glucose) with amino acids in the presence of blood, CFU plate counts; synergy determination from these CFU. Conditions: Table 7, amino acid analogue 5 mM, MPO 38 U/ml, GO 33.3 U/ml. Format: cell-based. On the procedure:
Bacterial suspensions, specifically Staphylococcus aureus in this example, were prepared by the shake flask method to achieve late log to early stationary phase growth. Bacteria were grown 24 hours in trypticase soy broth (TSB) at 35° C. The cultures were centrifuged at 4,000 rpm for 10 minutes and the supernatants removed. The pellet was collected and washed twice with sterile 0.9% normal saline (NS). The washed microorganisms were suspended and diluted with normal saline to a 3 McFarland standard, i.e., approximately 10^9 bacteria colony forming units (CFU) per mL. Actual colony counts are confirmed by serial dilutions (10^−1 to 10^−5 or 10^−6) plated on TSA and incubated overnight at 35° C. To obtain an approximate final working target inoculum of 10^7 CFU/mL, 15 microliters of organisms per mL of final reaction mixture are used.
Glucose oxidase (GO) from Aspergillus Niger was purchased from Biozyme, Inc., UK, Cat #GO3A, 270 U/mg). Porcine Myeloperoxidase (p-MPO) (Exoxemis, Inc., Little Rock, Ark. U.S.A., 375 U/mg). […]
Staphylococcus aureus were used to give a final target concentration of 2-3×10^7 CFU (7.4 log 10) per mL and venous whole blood was used to give a final concentration of 3%. […] Serial dilution plate counts were performed from the contents of each vial in sterile saline and inoculated onto trypticase soy agar (TSA) for quantitative culture. […]

The subject of assay [2] is Staphylococcus aureus. In words: Control: microbicidal activity of the amino acid or analogue alone (no glucose, MPO, glucose oxidase) in the presence of blood. The format is cell-based. Conditions: amino acid analogue alone 5 mM, MPO 0, GO 0. The text has this:
As a control to determine the microbicidal activity of the amino acids alone, the foregoing procedure was followed without replication, except in the absence of glucose, MPO, and glucose oxidase.

`O=C(O)C1CCCNC1` (centres unmarked) [Nipecotic acid]: the entries for the “Average Viability CFU/ml 60 min” value in assay [1] and in assay [2] were 0 CFU/ml and 23200000 CFU/ml, respectively.
